Data reported in ChEMBL document CHEMBL2176927, “Potent, selective, and orally bioavailable inhibitors of the mammalian target of rapamycin kinase domain exhibiting single agent antiproliferative activity” (J Med Chem, 2012).

Test: Selectivity ratio of Ki for PI3Kalpha to Ki for mTOR

`CCNC(=O)Nc1ccc(-c2nc3c(c(N4CCOCC4)n2)CCN(c2ncccn2)C3)cc1` showed a Ratio Ki of 60.
